Literature values, collected in paper PMC7383964 (Chemmedchem, 2020).

The chains behind the UniProt entries cited, without tags or fusion partners.
UniProt P35372, whole entry: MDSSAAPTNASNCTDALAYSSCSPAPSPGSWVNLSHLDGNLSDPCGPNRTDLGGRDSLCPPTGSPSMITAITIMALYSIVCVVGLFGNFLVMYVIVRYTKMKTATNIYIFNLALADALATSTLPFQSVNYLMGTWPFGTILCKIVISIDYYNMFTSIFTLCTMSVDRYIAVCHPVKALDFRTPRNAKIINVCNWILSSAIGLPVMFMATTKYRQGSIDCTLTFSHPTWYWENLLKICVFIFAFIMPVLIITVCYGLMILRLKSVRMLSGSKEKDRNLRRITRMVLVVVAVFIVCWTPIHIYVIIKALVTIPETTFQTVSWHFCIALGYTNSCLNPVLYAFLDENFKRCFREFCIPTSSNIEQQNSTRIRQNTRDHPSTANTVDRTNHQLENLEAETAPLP

Key:
δ‐OR = conditions: read-out: K i δ; cited from earlier work
κ‐OR = conditions: read-out: K i κ; cited from earlier work
μ‐OR = μ‐OR (Homo sapiens, UniProt P35372); conditions: read-out: K i μ; cited from earlier work

COC12CCC3(CC1C(C)(O)CC(C)(C)c1ccccc1)C1Cc4ccc(O)c5c4C3(CCN1CC1CC1)C2O5 (stereo not drawn)
Ki (δ‐OR): 3.66 nM
Ki (κ‐OR): 4.15 nM
Ki (μ‐OR): 2.19 nM
